Our source for the activation values is PubChem BioAssay AID624037 (The Scripps Research Institute Molecular Screening Center, 2012).

Amino acid sequences for entries named in this document (tags omitted).
UniProt P08912, whole entry: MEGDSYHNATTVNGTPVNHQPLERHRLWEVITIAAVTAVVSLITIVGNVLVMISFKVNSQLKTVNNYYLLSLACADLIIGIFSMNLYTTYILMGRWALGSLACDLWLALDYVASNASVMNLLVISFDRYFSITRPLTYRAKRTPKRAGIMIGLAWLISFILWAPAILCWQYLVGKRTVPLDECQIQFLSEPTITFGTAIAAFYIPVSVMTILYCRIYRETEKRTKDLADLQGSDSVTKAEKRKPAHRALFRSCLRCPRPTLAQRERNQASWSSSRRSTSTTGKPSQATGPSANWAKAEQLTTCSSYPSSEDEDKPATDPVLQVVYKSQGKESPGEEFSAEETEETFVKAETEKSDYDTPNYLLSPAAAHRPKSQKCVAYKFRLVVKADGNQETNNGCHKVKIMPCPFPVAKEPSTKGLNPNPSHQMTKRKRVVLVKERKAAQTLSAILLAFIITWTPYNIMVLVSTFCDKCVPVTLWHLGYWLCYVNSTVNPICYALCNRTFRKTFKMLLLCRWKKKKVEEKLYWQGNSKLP

Only a part is listed here, and it is no random draw. Active and inactive are the calls of the source.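 The calls were made as follows: active = activation above the run's mean over test compounds plus 3 SD (cut at about 23% in these data); inactive = the rest.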

In the assay the target is Muscarinic acetylcholine receptor M5 (Homo sapiens) (UniProt P08912). Put plainly: human M5 muscarinic receptor agonists, primary screen, CHO-K1 cells, Fluo-8 calcium fluorescence (AID 624037).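 Also: signal is peak over basal fluorescence ratio across the kinetic read.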 Particulars: CHO-K1 hM5 cells, at 3 µM, active compounds read high, 0% DMSO wells, 100% maximal acetylcholine response.
With `CN1CCC(Nc2ccc(F)c(Cl)c2)CC1`, the activation was inactive: -15.5%.

On to `CCOc1ncccc1C(=O)NCC1(N2CCOCC2)CCCCC1`, for which the activation is inactive: -0.88%.

Take `O=c1[nH]c2ccccc2n1C1CCN(C(c2cc3ccccc3o2)c2nnnn2C2CCCC2)CC1` (stereo not drawn): the activation is inactive: 3.21%.

Turning to `CCCOc1ccc(C(=O)NCC2(N(C)C)CCCCC2)cc1`, the activation is inactive: -6.04%.

`O=C(O)C1(Nc2ccccc2)CCN(Cc2ccccc2)CC1`: the activation is inactive: -5.32%.

With `NN(c1ccccc1)C1CCN(CCc2ccccc2)CC1`, the activation is inactive: -6.95%.

As for `CC(C)(C)OC(=O)N1CCC(Nc2ccccc2)CC1`, the activation was inactive: 1.14%.

Regarding `CCC(CO)(C(=O)OC1CN2CCC1CC2)c1ccccc1` (stereo not drawn), the activation is inactive: -7.3%.

`COc1cc(OC)cc(C(=O)NCC2(N3CCOCC3)CCCCC2)c1`: the activation is inactive: -2.11%.

Regarding `COc1cccc(C(c2nnnn2C2CCCC2)N2CCC(n3c(=O)[nH]c4ccccc43)CC2)c1OC` (stereo not drawn), the activation is inactive: -3.95%.

Turning to `COc1cccc(C(=O)N(c2cc(C)cc(C)c2)C2CCN(C(=O)OC(C)(C)C)CC2)c1`, the activation is inactive: -6.2%.

`CN1CCC(Nc2ccc(Cl)cc2)CC1`: the activation is inactive: -5.69%.

With `COc1cc(OC)cc(C(=O)NCC2(N3CCCCC3)CCCCC2)c1`, the activation is inactive: -3.65%.

As to `O=c1[nH]c2ccccc2n1C1CCN(C(c2ccnc3ccccc23)c2nnnn2C2CCCCC2)CC1` (stereo not drawn), the activation is inactive: 1.46%.

For the compound `CCC(c1nnnn1C1CCCCC1)N1CCC(n2c(=O)[nH]c3ccccc32)CC1` (stereo not drawn), the activation is inactive: 7.07%.

As to `COc1cccc(C(c2nnnn2C2CCCCC2)N2CCC(n3c(=O)[nH]c4ccccc43)CC2)c1OC` (stereo not drawn), the activation is inactive: 1.22%.

Regarding `CC(=O)N(c1ccccc1)C1CCNCC1`, the activation was inactive: -8.02%.

As to `Cc1ccc(NC2(C#N)CCN(Cc3ccccc3)CC2)cc1`, the activation is inactive: 3.81%.

Turning to `Fc1ccccc1NC1CCN(Cc2ccccc2)CC1`, the activation was inactive: -2.44%.

Take `Cc1ccc(C(=O)NCC2(N3CCCCC3)CCCCC2)o1`: the activation was inactive: 1.13%.

Consider `CCN1CCC(Nc2cccc(F)c2)CC1`, for which the activation is inactive: -7.09%.

Turning to `COc1ccc(C(c2nnnn2C2CCCCC2)N2CCC(n3c(=O)[nH]c4ccccc43)CC2)cc1` (stereo not drawn), the activation is inactive: 1.86%.

On to `CC(C)(C)n1nnnc1C(c1ccnc2ccccc12)N1CCC(n2c(=O)[nH]c3ccccc32)CC1` (stereo not drawn), for which the activation was active: 29.4%.

Take `Cc1ccccc1NC1(C#N)CCN(Cc2ccccc2)CC1`: the activation is inactive: -1.36%.

`CN(C)c1ccc(C(=O)NCC2(N3CCCCC3)CCCCC2)cc1`: the activation was inactive: -2.53%.

For the compound `Cn1c(=O)[nH]cc(N(CCCl)CCCl)c1=O`, the activation was inactive: 1.62%.

For `O=C(NCC1(N2CCCCC2)CCCCC1)c1ccco1`, the activation is inactive: -0.62%.

As to `CC(C)(C)OC(=O)N1CCC(N(C(=O)c2ccccc2)c2ccc(Cl)cc2)CC1`, the activation was inactive: -4.12%.

On to `N#Cc1ccc(C(=O)NCC2(N3CCCCC3)CCCCC2)cc1`, for which the activation is inactive: -4.19%.

Take `Cc1cc(N(CCCl)CCCl)ccc1C=O`: the activation was inactive: -7.93%.

With `O=c1[nH]c2ccccc2n1C1CCN(C(c2ccccc2)c2nnnn2C2CCCC2)CC1` (stereo not drawn), the activation is inactive: 7.67%.

On to `CCCN1CCC(Nc2cc(OC)cc(OC)c2)CC1`, for which the activation was inactive: -3.07%.

Turning to `c1ccc(CN2CCC(Nc3ccccc3)CC2)cc1`, the activation is inactive: -8.71%.

Take `CN(C)C1(CNC(=O)c2cccc(C#N)c2)CCCCC1`: the activation is inactive: -4.85%.

For `CC(C)(C)n1nnnc1C(c1cccc2ccccc12)N1CCC(n2c(=O)[nH]c3ccccc32)CC1` (stereo not drawn), the activation was inactive: 6.98%.

As to `O=C(NCC1(N2CCOCC2)CCCCC1)c1cc(Br)ccc1Cl`, the activation was inactive: -1.14%.

On to `COc1cc(C(=O)NCC2(N3CCOCC3)CCCCC2)cc(OC)c1C`, for which the activation was inactive: -1.34%.

For the compound `CCCCn1nnnc1C(c1ccccc1)N1CCC(n2c(=O)[nH]c3ccccc32)CC1` (stereo not drawn), the activation is inactive: 6.65%.

On to `O=c1[nH]c2ccccc2n1C1CCN(C(c2ccnc3ccccc23)c2nnnn2C2CCCC2)CC1` (stereo not drawn), for which the activation is inactive: 6.35%.

Take `COc1ccc(C(=O)NCC2(N3CCOCC3)CCCCC2)cc1OC`: the activation was inactive: 0.28%.

As to `O=c1[nH]c2ccccc2n1C1CCN(C(c2cccs2)c2nnnn2C2CCCCC2)CC1` (stereo not drawn), the activation is inactive: 9.5%.

As to `N/C(=N\O)c1c(N)no[n+]1[O-]`, the activation is inactive: -1.71%.

For `CCOC(=O)N1CCC(Nc2ccc(C)cc2)CC1`, the activation is inactive: -8.75%.

`COc1cccc(C(c2nnnn2C(C)(C)C)N2CCC(n3c(=O)[nH]c4ccccc43)CC2)c1OC` (stereo not drawn): the activation was inactive: 5.66%.

For `CCCCn1nnnc1C(c1cccc(OC)c1OC)N1CCC(n2c(=O)[nH]c3ccccc32)CC1` (stereo not drawn), the activation was inactive: -2.42%.

Consider `O=c1[nH]c2ccccc2n1C1CCN(C(c2cccs2)c2nnnn2C2CCCC2)CC1` (stereo not drawn), for which the activation is inactive: 10.9%.

As for `O=C(OC1CN2CCC1CC2)C1c2ccccc2C=Cc2ccccc21` (stereo not drawn), the activation was inactive: -8.42%.

Take `CN(C)c1cccc(C(=O)NCC2(N3CCCCC3)CCCCC2)c1`: the activation is inactive: -12.6%.

For the compound `COc1ccc(CN(CCCl)CCCl)cc1Cl`, the activation is inactive: -1.32%.

As for `CCCCn1nnnc1C(c1ccccc1OC(F)(F)F)N1CCC(n2c(=O)[nH]c3ccccc32)CC1` (stereo not drawn), the activation is inactive: 0.78%.

Take `CC(C)c1ccc(NC2CCN(C(=O)OC(C)(C)C)CC2)cc1`: the activation was inactive: 2.11%.

Regarding `CCCCn1nnnc1C(c1ccnc2ccccc12)N1CCC(n2c(=O)[nH]c3ccccc32)CC1` (stereo not drawn), the activation was inactive: 4.3%.

On to `CCC(c1nnnn1C(C)(C)C)N1CCC(n2c(=O)[nH]c3ccccc32)CC1` (stereo not drawn), for which the activation was inactive: 2.24%.

Consider `O=C(NCC1(N2CCOCC2)CCCCC1)c1cc(F)c(F)cc1Cl`, for which the activation is inactive: 2.73%.

On to `COc1cc(OC)c(C(=O)NCC2(N(C)C)CCCCC2)cc1OC`, for which the activation was inactive: -0.99%.

`CN1CCC(Nc2cccc(F)c2)CC1`: the activation is inactive: -7%.

For the compound `O=C(NCC1(N2CCCCC2)CCCCC1)c1cncc(Br)c1`, the activation is inactive: -1.5%.

As for `CCCOc1ccc(C(=O)NCC2(N(C)C)CCCCC2)cc1OC`, the activation is inactive: -3.11%.

`Cc1ccc(C(=O)NCC2(N(C)C)CCCCC2)o1`: the activation was inactive: -1.14%.

With `COc1ccc(C(c2nnnn2C2CCCC2)N2CCC(n3c(=O)[nH]c4ccccc43)CC2)cc1` (stereo not drawn), the activation was inactive: -4.81%.

Take `O=C(NCC1(N2CCCCC2)CCCCC1)c1ccc(OC(F)F)cc1`: the activation is inactive: -8.93%.

As for `CC(C)(C)n1nnnc1C(c1ccccc1OC(F)(F)F)N1CCC(n2c(=O)[nH]c3ccccc32)CC1` (stereo not drawn), the activation was inactive: 4.28%.

For the compound `O=C(NCC1(N2CCCCC2)CCCCC1)c1cccc([N+](=O)[O-])c1`, the activation is inactive: -12.8%.

For `CSc1ccc(C(=O)NCC2(N3CCOCC3)CCCCC2)cc1`, the activation was inactive: -2.82%.

Take `O=c1[nH]c2ccccc2n1C1CCN(C(c2ccccc2OC(F)(F)F)c2nnnn2C2CCCC2)CC1` (stereo not drawn): the activation is inactive: -2.34%.

On to `N#CC1(Nc2ccccc2)CCN(CCc2ccccc2)CC1`, for which the activation was inactive: -0.51%.

Consider `CCN1CCC(Nc2ccc(Cl)cc2)CC1`, for which the activation was inactive: -6.69%.

On to `O=C(NCC1(N2CCCCC2)CCCCC1)c1cccc(C(F)(F)F)c1`, for which the activation is inactive: -0.75%.

In the case of `CN1CCN(CCOC(=O)C(O)(c2ccccc2)c2ccccc2)CC1`, the activation was inactive: -7.68%.

As for `CC(C)c1ccc(C(=O)NCC2(N3CCOCC3)CCCCC2)cc1`, the activation is inactive: -2.85%.

Regarding `COc1ccc(NC2CCN(C(=O)OC(C)(C)C)CC2)cc1`, the activation was inactive: -3.02%.

Take `CCCCn1nnnc1C(c1cccc2ccccc12)N1CCC(n2c(=O)[nH]c3ccccc32)CC1` (stereo not drawn): the activation is inactive: 4.76%.

With `COc1cc(C(=O)NCC2(N3CCCCC3)CCCCC2)ccc1OC(F)F`, the activation is inactive: -7.7%.

For the compound `O=C(NCC1(N2CCOCC2)CCCCC1)c1cc(=O)[nH]c2ccccc12`, the activation was inactive: 3.01%.

With `CCOc1ccc(C)cc1CN(CCCl)CCCl`, the activation is inactive: -1.45%.

As to `O=C1CCN(Cc2ccccc2)CC1`, the activation was inactive: -0.55%.

As to `CC(C)(C)n1nnnc1C(c1ccccc1)N1CCC(n2c(=O)[nH]c3ccccc32)CC1` (stereo not drawn), the activation is inactive: 6.05%.

As to `COc1ccc(NC2CCN(CCc3ccccc3)CC2)c(OC)c1`, the activation was inactive: -3.75%.

Consider `CCOC(=O)N1CCC(Nc2ccc(F)cc2)CC1`, for which the activation was inactive: -0.41%.

Regarding `CCCCn1nnnc1C(c1cc2ccccc2o1)N1CCC(n2c(=O)[nH]c3ccccc32)CC1` (stereo not drawn), the activation was inactive: 4.44%.

For `O=P1(N(CCCl)CCCl)SCCCS1`, the activation is inactive: 2.63%.

For `CCCCOc1ccc(C(=O)NCC2(N3CCOCC3)CCCCC2)cc1`, the activation is inactive: -7.7%.

Regarding `O=C(NCC1(N2CCCCC2)CCCCC1)c1ccc(F)cc1`, the activation is inactive: -6.05%.

Take `O=c1[nH]c2ccccc2n1C1CCN(C(c2ccccc2)c2nnnn2C2CCCCC2)CC1` (stereo not drawn): the activation was inactive: 3.84%.

On to `O=c1[nH]c2ccccc2n1C1CCN(C(c2cccc3ccccc23)c2nnnn2C2CCCC2)CC1` (stereo not drawn), for which the activation was inactive: 3.98%.

As to `CCOC(=O)N1CCC(Nc2cccc(C)c2)CC1`, the activation was inactive: -6.57%.

Take `COc1cc(C(=O)NCC2(N(C)C)CCCCC2)ccc1OC(F)F`: the activation is inactive: -2.28%.

As for `O=C(NCC1(N2CCCCC2)CCCCC1)c1cccs1`, the activation is inactive: -1.78%.

Take `CCCCn1nnnc1C(CC)N1CCC(n2c(=O)[nH]c3ccccc32)CC1` (stereo not drawn): the activation is inactive: 7.52%.

For the compound `CCCCn1nnnc1C(c1cccs1)N1CCC(n2c(=O)[nH]c3ccccc32)CC1` (stereo not drawn), the activation was inactive: 4.32%.

In the case of `O=C(NCC1(N2CCCCC2)CCCCC1)c1ccc(=O)[nH]c1`, the activation was inactive: -1.42%.

`CC(C)(C)OC(=O)N1CCC(N(C(=O)c2ccccc2)c2ccc(F)cc2)CC1`: the activation was inactive: -2.69%.

With `COc1ccc(C(=O)NCC2(N3CCCCC3)CCCCC2)c(OC)c1OC`, the activation is inactive: -1.81%.

As to `CCC(c1nnnn1C1CCCC1)N1CCC(n2c(=O)[nH]c3ccccc32)CC1` (stereo not drawn), the activation was inactive: 13.4%.

With `COc1ccc(C(=O)NCC2(N3CCCCC3)CCCCC2)cc1`, the activation is inactive: -3.88%.

`Cc1cccc(NC2(C#N)CCN(Cc3ccccc3)CC2)c1`: the activation is inactive: 2.98%.

In the case of `CSc1ccccc1C(=O)NCC1(N2CCCCC2)CCCCC1`, the activation was inactive: -2.89%.

As for `O=C(NCC1(N2CCOCC2)CCCCC1)c1cc2ccccc2o1`, the activation was inactive: -1.77%.

For the compound `Cc1cc(C)cc(N(C(=O)c2ccccc2)C2CCN(C(=O)OC(C)(C)C)CC2)c1`, the activation is inactive: -10.7%.

For `O=C(NCC1(N2CCCCC2)CCCCC1)c1ccc(Cl)nc1`, the activation was inactive: -5.85%.

Regarding `O=c1[nH]c2ccccc2n1C1CCN(C(c2ccccc2OC(F)(F)F)c2nnnn2C2CCCCC2)CC1` (stereo not drawn), the activation was inactive: 2.01%.

Take `CCCCn1nnnc1C(c1ccc(OC)cc1)N1CCC(n2c(=O)[nH]c3ccccc32)CC1` (stereo not drawn): the activation is inactive: 2.7%.

`CCOC(=O)N1CCC(Nc2ccc(OC)cc2)CC1`: the activation was inactive: 0.34%.

For the compound `COc1ccc(Cl)cc1C(=O)NCC1(N2CCOCC2)CCCCC1`, the activation was inactive: -0.6%.

With `O=C(NCC1(N2CCCCC2)CCCCC1)c1ccc(Cl)s1`, the activation is inactive: -2.85%.

As for `N#CC1(Nc2ccccc2)CCN(Cc2ccccc2)CC1`, the activation is inactive: -0.51%.

As to `O=C(OC1CN2CCC1CC2)C1c2ccccc2Oc2ccccc21` (stereo not drawn), the activation was inactive: -10.4%.

On to `O=c1[nH]c2ccccc2n1C1CCN(C(c2cc3ccccc3o2)c2nnnn2C2CCCCC2)CC1` (stereo not drawn), for which the activation is inactive: 1.4%.
